{"sequences": {"note": "Protein sequences, listed by entry. Tags and fused reporters are not part of them.", "UniProt P09874, whole entry, species assumed": "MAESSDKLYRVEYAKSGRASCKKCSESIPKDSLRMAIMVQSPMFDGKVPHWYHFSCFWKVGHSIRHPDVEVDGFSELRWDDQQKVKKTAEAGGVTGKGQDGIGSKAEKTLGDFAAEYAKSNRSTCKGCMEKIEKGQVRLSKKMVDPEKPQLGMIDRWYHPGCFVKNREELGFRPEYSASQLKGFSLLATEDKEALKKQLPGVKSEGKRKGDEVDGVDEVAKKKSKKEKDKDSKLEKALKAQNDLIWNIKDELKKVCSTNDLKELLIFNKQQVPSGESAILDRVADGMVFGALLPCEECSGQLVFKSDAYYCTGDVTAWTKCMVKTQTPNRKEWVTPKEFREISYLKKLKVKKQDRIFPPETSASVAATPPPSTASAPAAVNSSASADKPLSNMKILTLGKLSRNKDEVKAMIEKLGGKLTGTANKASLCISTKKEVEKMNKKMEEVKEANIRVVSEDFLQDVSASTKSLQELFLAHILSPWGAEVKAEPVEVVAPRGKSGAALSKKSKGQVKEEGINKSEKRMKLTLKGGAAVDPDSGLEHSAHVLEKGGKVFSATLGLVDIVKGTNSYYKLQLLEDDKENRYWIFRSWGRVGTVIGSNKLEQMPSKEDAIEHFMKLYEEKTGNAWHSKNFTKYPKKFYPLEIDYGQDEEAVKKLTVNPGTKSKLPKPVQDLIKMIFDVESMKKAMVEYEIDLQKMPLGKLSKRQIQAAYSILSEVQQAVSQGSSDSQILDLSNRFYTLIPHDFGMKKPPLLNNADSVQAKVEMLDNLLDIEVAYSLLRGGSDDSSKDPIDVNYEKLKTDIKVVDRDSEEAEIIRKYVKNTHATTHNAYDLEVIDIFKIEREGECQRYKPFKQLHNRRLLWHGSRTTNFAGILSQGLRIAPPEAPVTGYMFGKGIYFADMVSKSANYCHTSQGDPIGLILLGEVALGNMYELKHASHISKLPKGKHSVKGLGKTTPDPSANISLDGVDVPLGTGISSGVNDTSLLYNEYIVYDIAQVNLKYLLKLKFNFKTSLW"}, "source": "patent US10894960B2", "about": "“Compositions and methods for nucleic acid transfer” (Children's Hospital Medical Center, priority 2016, dated 2021)", "origin": "cited, not measured here", "target": "PARP-1 (Homo sapiens, UniProt P09874)", "conditions": "Target PARP-1, gene symbol PARP1", "data": [{"smiles": "O=c1[nH]cnc2c1ncn2[C@@H]1O[C@H](CO)[C@@H](O)[C@H]1O", "note": "[INO 1001]", "values": [{"measurement": "Effect", "result": "Inhibition"}]}]}
